The text below walks through data of ChEMBL document CHEMBL1131493, “Inhibitors of farnesyl protein transferase. 4-Amido, 4-carbamoyl, and 4-carboxamido derivatives of 1-(8-chloro-6,11-dihydro-5H-benzo[5,6]- cyclohepta[1,2-b]pyridin-11-yl)piperazine and 1-(3-bromo-8-chloro-6,11- dihydro-5H-benzo[5,6]cyclohepta[1,2-b]pyridin-11-yl)piperazine” (J Med Chem, 1998).

Assay [1] has as its target T1, Protein farnesyltransferase (Homo sapiens, UniProt P49354+P49356). The experiment in a line: Inhibition of Farnesyltransferase from Ras-CVLS or Ras-CVLL in Cos-7 monkey kidney cells. The format is cell-based, Chlorocebus aethiops.
Assay [2] addresses T1, Protein farnesyltransferase. As to the kind of experiment: In vitro inhibition of farnesyltransferase farnesylation of the H-ras oncogene. Type of assay: protein-complex assay.
Assay [3] has the same target. As to the kind of experiment: (§1) In vitro inhibition of Ha-ras farnesylation in DLD-1 cells. Type of assay: cell-based.
Assay [4] has the same target. The assay is described as §1. Type of assay: cell-based. The source holds these as a separate data set.
Assay [5] shares this target. The experiment in a line: In vitro inhibition of Ha-ras farnesylation in Ha-ras-transformed NIH3T3 cells. The format is cell-based.
The target is the same in assay [6]. The experiment in a line: In vitro inhibition of Ha-ras farnesylation in Ki-ras-transformed NIH3T3 cells. The format is cell-based.

Regarding `NC(=O)N1CCC(CC(=O)N2CCN(C3c4ccc(Cl)cc4CCc4cc(Br)cnc43)CC2)CC1` (centres undefined), the IC50 (commonly the concentration that inhibits the measured activity by half) in assay [1] was 590 nM; in assay [2] it was 49 nM. In the case of `O=C(Cc1ccncc1)N1CCN([C@@H]2c3ccc(Cl)cc3CCc3cccnc32)CC1`, in assay [2], half-maximal inhibition (IC50) was put at 490 nM. For the compound `CN(C)c1ccc(CC(=O)N2CCN(C3c4ccc(Cl)cc4CCc4cccnc43)CC2)cc1` (centres undefined), half-maximal inhibition in assay [2] (IC50) required 2440 nM. Still for that read-out and setting: as for `CN1CCC(CC(=O)N2CCN(C3c4ccc(Cl)cc4CCc4cc(Br)cnc43)CC2)CC1` (centres undefined), the figure is 120 nM. In the case of `O=C(Cc1ccc[n+]([O-])c1)N1CCN(C2c3ccc(Cl)cc3CCc3cccnc32)CC1` (centres undefined), the results for the half-maximal inhibitory concentration (IC50) in assay [1] and in assay [2] were 11100 nM and 1170 nM, respectively. With `O=C(Cc1ccc[n+]([O-])c1)N1CCN([C@@H]2c3ccc(Cl)cc3CCc3cccnc32)CC1`, the 50% inhibitory concentration (IC50) in assay [2] was determined as 7000 nM.

Take `O=C(Cc1cccnc1)N1CCN([C@@H]2c3ccc(Cl)cc3CCc3cccnc32)CC1`: in assay [2], 2100 nM corresponded to half-maximal inhibition (IC50). For `O=C(Cc1cccnc1)N1CCN(C2c3ccc(Cl)cc3CCc3cccnc32)CC1` (centres undefined), the IC50 in assay [1] was 6220 nM; in assay [2] it was 530 nM. With `CCOC(=O)N1CCC(C(=O)N2CCN(C3c4ccc(Cl)cc4CCc4cccnc43)CC2)CC1` (centres undefined), the concentration for half-maximal inhibition (IC50) in assay [2] stood at 13300 nM. Take `O=C(Cc1ccncc1)N1CCN([C@H]2c3ccc(Cl)cc3CCc3cccnc32)CC1`: the IC50 in assay [2] was determined as 140 nM. Regarding `O=C(Cc1cc[n+]([O-])cc1)N1CCN([C@H]2c3ccc(Cl)cc3CCc3cc(Br)cnc32)CC1`, the half-maximal inhibitory concentration (IC50) in assay [1] came out at 125 nM; in assay [3], 7000 nM; in assay [4], 8000 nM; in assay [5], 1500 nM; in assay [6] it was 6500 nM. For `O=C(Cc1cc[n+]([O-])cc1)N1CCN(C2c3ccc(Cl)cc3CCc3cc(Br)cnc32)CC1` (centres undefined), the IC50 in assay [5] is 1200 nM; in assay [6] it was 4000 nM; in assay [2], 47 nM. Turning to `O=C(Cc1ccc(Br)cc1)N1CCN(C2c3ccc(Cl)cc3CCc3cccnc32)CC1` (centres undefined), in assay [2], the concentration for half-maximal inhibition (IC50) was 2040 nM. In the case of `O=C(Cc1cccnc1)N1CCN([C@H]2c3ccc(Cl)cc3CCc3cccnc32)CC1`, 190 nM corresponded to half-maximal inhibition in assay [2] (IC50). For `O=C(Cc1cccnc1)N1CCN(C2c3ccc(Cl)cc3CCc3ccc[n+]([O-])c32)CC1` (centres undefined), the IC50 in assay [1] worked out at 11500 nM; in assay [2], 910 nM.

`O=C(Nc1ccncc1)N1CCN(C2c3ccc(Cl)cc3CCc3cccnc32)CC1` (centres undefined) yielded an IC50 in assay [1] of 10500 nM. On to `O=C(Cc1ccc[n+]([O-])c1)N1CCN([C@H]2c3ccc(Cl)cc3CCc3cccnc32)CC1`, for which the IC50 in assay [2] was found to be 2300 nM. Compound `O=C(Cc1ccncc1)N1CCN(C2c3ccc(Cl)cc3CCc3cccnc32)CC1` (centres undefined) gave an IC50 in assay [2] of 160 nM.

`O=C(CN1C(=O)c2ccccc2C1=O)N1CCN(C2c3ccc(Cl)cc3CCc3cccnc32)CC1` (centres undefined) returned a half-maximal inhibitory concentration (IC50) in assay [1] of 39900 nM. In turn, `O=C(Cc1ccc[n+]([O-])c1)N1CCN(C2c3ccc(Cl)cc3CCc3cc(Br)cnc32)CC1` (centres undefined) registered an IC50 in assay [2] of 400 nM. With `CN1CCC(CC(=O)N2CCN([C@H]3c4ccc(Cl)cc4CCc4cc(Br)cnc43)CC2)CC1`, the IC50 in assay [1] worked out at 900 nM; in assay [2] it was 50 nM. As for `CN1CCC(CC(=O)N2CCN([C@@H]3c4ccc(Cl)cc4CCc4cc(Br)cnc43)CC2)CC1`, the results for the IC50 in assay [1] and in assay [2] were 700 nM and 54 nM, respectively.
